The list shows a part of the results, in another mix than the full data. Results filed as inconclusive are left out. Some salts and complexes are drawn in separate pieces, as the source files them; their charges need not balance. Calls of active or inactive are those of the source. The call rests on the fitted dose curve; in most records, active means well fitted inhibition curve with a large enough effect; inconclusive means small, poorly fitted or top-dose-only effect, or effect the other way; inactive means flat fitted curve, though single readings scatter.
Test: Nrf2 qHTS screen for inhibitors; further: nearly all actives have a fitted effect of over 60% in size
Settings: A549 ARE-Fluc reporter, luciferase luminescence, 18-24 h; at 46 µM (top of the series)
On the % scale 0 is the no-effect control and ±100 the full control effect.

Row | SMILES | activity change, negative = inhibition
1 | CCC(CO)(C(=O)OC1CN2CCC1CC2)c1ccccc1 (stereo not drawn) | inactive: 1.56%
2 | COc1cc(OC)cc(C(=O)NCC2(N3CCOCC3)CCCCC2)c1 | inactive: -3.64%
3 | COc1cc(C(=O)NCC2(N3CCOCC3)CCCCC2)cc(OC)c1OC | inactive: 10.6%
4 | CN1CCC(Nc2ccc(Cl)cc2)CC1 | inactive: -11.7%
5 | CCOc1ncccc1C(=O)NCC1(N2CCOCC2)CCCCC1 | inactive: -9.7%
6 | CN1CCC(Nc2ccc(F)c(Cl)c2)CC1 | inactive: 7.87%
7 | CCCOc1ccc(C(=O)NCC2(N(C)C)CCCCC2)cc1 | inactive: 14.2%
8 | CC(C)(C)OC(=O)N1CCC(Nc2ccccc2)CC1 | inactive: -32%
9 | O=C(O)C1(Nc2ccccc2)CCN(Cc2ccccc2)CC1 | inactive: 9.32%
10 | Cc1ccccc1NC1(C#N)CCN(Cc2ccccc2)CC1 | inactive: 9.51%
11 | CCN1CCC(Nc2cccc(F)c2)CC1 | inactive: 0.473%
12 | O=C(NCC1(N2CCCCC2)CCCCC1)c1ccco1 | inactive: 14.4%
13 | CC(C)(C)c1ccc(C(=O)NCC2(N3CCOCC3)CCCCC2)cc1 | inactive: 10.9%
14 | CN(C)c1ccc(C(=O)NCC2(N3CCCCC3)CCCCC2)cc1 | inactive: 1.36%
15 | Cn1c(=O)[nH]cc(N(CCCl)CCCl)c1=O | inactive: -25.6%
16 | Cc1ccccc1C(=O)NCC1(N(C)C)CCCCC1 | inactive: 0.14%
17 | COc1cc(OC)cc(C(=O)NCC2(N3CCCCC3)CCCCC2)c1 | inactive: 3.18%
18 | CN(C)C1(CNC(=O)c2ccc(C(C)(C)C)cc2)CCCCC1 | inactive: 7.76%
19 | CC(=O)N(c1ccccc1)C1CCNCC1 | inactive: -0.745%
20 | Cc1ccc(NC2(C#N)CCN(Cc3ccccc3)CC2)cc1 | inactive: 3.53%
21 | Cc1ccc(C(=O)NCC2(N3CCCCC3)CCCCC2)o1 | inactive: 2.08%

Row | SMILES | activity change, negative = inhibition
22 | c1ccc(CN2CCC(Nc3ccccc3)CC2)cc1 | inactive: -6.24%
23 | O=C(NCC1(N2CCOCC2)CCCCC1)c1ccccc1 | inactive: -1.58%
24 | CCCN1CCC(Nc2cc(OC)cc(OC)c2)CC1 | inactive: 12.3%
25 | CN(C)C1(CNC(=O)c2cccc(C#N)c2)CCCCC1 | inactive: 9.38%
26 | CC(C)(C)OC(=O)N1CCC(N(C(=O)c2ccccc2)c2ccc(Cl)cc2)CC1 | inactive: -16.9%
27 | O=C(NCC1(N2CCOCC2)CCCCC1)c1ccccc1[N+](=O)[O-] | inactive: 1.24%
28 | N#Cc1ccc(C(=O)NCC2(N3CCCCC3)CCCCC2)cc1 | inactive: 1.96%
29 | CCOC(=O)C(CC)C1=NC(C)(C)Cc2ccccc21.O=[N+]([O-])c1cc([N+](=O)[O-])c(O)c([N+](=O)[O-])c1 (stereo not drawn) | inactive: -17.9%
30 | N/C(=N\O)c1c(N)no[n+]1[O-] | inactive: 16.5%
31 | CCOC(=O)N1CCC(Nc2ccc(C)cc2)CC1 | inactive: -18.9%
32 | CCc1cc(C(=O)NCC2(N3CCCCC3)CCCCC2)sc1C | inactive: 18.4%
33 | O=C(OC1CN2CCC1CC2)C1c2ccccc2C=Cc2ccccc21 (stereo not drawn) | inactive: 5.57%
34 | O=C(O)c1cccc(Nc2c([N+](=O)[O-])cc([N+](=O)[O-])cc2[N+](=O)[O-])c1 | inactive: 6.03%
35 | O=C(NCC1(N2CCOCC2)CCCCC1)c1cc(Br)ccc1Cl | inactive: -0.544%
36 | COc1cc(C(=O)NCC2(N3CCOCC3)CCCCC2)cc(OC)c1C | inactive: -9.52%
37 | COc1ccc(C(=O)NCC2(N3CCOCC3)CCCCC2)cc1OC | inactive: -0.785%
38 | COc1ccc2c(c1O)-c1c(O)c(OC)cc3c1[C@H](C2)[N+](C)(C)CC3.O=[N+]([O-])c1cc([N+](=O)[O-])c([O-])c([N+](=O)[O-])c1[O-] | inactive: 0.169%
39 | O=C(NCC1(N2CCCCC2)CCCCC1)c1cncc(Br)c1 | inactive: 7.29%
40 | O=C(OC1CN2CCC1CC2)c1ccc([N+](=O)[O-])cc1 (stereo not drawn) | inactive: -5.51%
41 | CCCCOc1ccccc1C(=O)NCC1(N2CCOCC2)CCCCC1 | inactive: -1.51%
42 | O=C(NCC1(N2CCOCC2)CCCCC1)c1ccccc1Br | inactive: 0.0137%

Row | SMILES | activity change, negative = inhibition
43 | CCCOc1ccc(C(=O)NCC2(N(C)C)CCCCC2)cc1OC | inactive: -13.6%
44 | CN(C)c1cccc(C(=O)NCC2(N3CCCCC3)CCCCC2)c1 | inactive: 1.28%
45 | O=[N+]([O-])c1cc([N+](=O)[O-])c(OC2CCCCC2O)c([N+](=O)[O-])c1 (stereo not drawn) | inactive: -27%
46 | COc1cc(OC)c(C(=O)NCC2(N(C)C)CCCCC2)cc1OC | inactive: 14%
47 | O=C(NCC1(N2CCOCC2)CCCCC1)c1cc(F)c(F)cc1Cl | inactive: 6.14%
48 | O=C(NCC1(N2CCCCC2)CCCCC1)c1cccc(C(F)(F)F)c1 | inactive: 8.18%
49 | CCCOc1cccc(C(=O)NCC2(N3CCOCC3)CCCCC2)c1 | inactive: 1.71%
50 | O=[N+]([O-])c1cc([N+](=O)[O-])c(NCC2CCS(=O)(=O)C2)c([N+](=O)[O-])c1 (stereo not drawn) | inactive: -2.25%
51 | CC(C)c1ccc(C(=O)NCC2(N3CCOCC3)CCCCC2)cc1 | inactive: 20%
52 | CN1CCN(CCOC(=O)C(O)(c2ccccc2)c2ccccc2)CC1 | inactive: 4.59%
53 | O=C(NCC1(N2CCOCC2)CCCCC1)c1cc(=O)[nH]c2ccccc12 | inactive: 16.5%
54 | COc1cc(C(=O)NCC2(N3CCCCC3)CCCCC2)ccc1OC(F)F | inactive: 11.7%
55 | O=C(NCC1(N2CCCCC2)CCCCC1)c1ccc(OC(F)F)cc1 | inactive: -10.5%
56 | CCOc1ccc(C(=O)NCC2(N3CCOCC3)CCCCC2)cc1 | inactive: 16.7%
57 | O=C(NCC1(N2CCCCC2)CCCCC1)c1cccc([N+](=O)[O-])c1 | inactive: -1.8%
58 | CSc1ccc(C(=O)NCC2(N3CCOCC3)CCCCC2)cc1 | inactive: 10.1%
59 | CCN1CCC(Nc2ccc(Cl)cc2)CC1 | inactive: -1.61%
60 | N#CC1(Nc2ccccc2)CCN(CCc2ccccc2)CC1 | inactive: 11.4%
61 | CCOC(=O)N1CCC(Nc2cccc(C)c2)CC1 | inactive: -8.58%
62 | CCOc1ccc(C)cc1CN(CCCl)CCCl | inactive: -14%
63 | O=C(NCC1(N2CCOCC2)CCCCC1)c1ccc(Cl)cc1 | inactive: 0.736%

Row | SMILES | activity change, negative = inhibition
64 | O=C1CCN(Cc2ccccc2)CC1 | inactive: -3.24%
65 | O=P1(N(CCCl)CCCl)SCCCS1 | inactive: -12.9%
66 | O=C(NCC1(N2CCCCC2)CCCCC1)c1ccc(F)cc1 | inactive: -1.99%
67 | CCOC(=O)N1CCC(Nc2ccc(F)cc2)CC1 | inactive: -29.1%
68 | COc1ccc(NC2CCN(CCc3ccccc3)CC2)c(OC)c1 | inactive: 10.7%
69 | COc1ccccc1C(=O)NCC1(N2CCOCC2)CCCCC1 | inactive: -5.89%
70 | O=C(NCC1(N2CCOCC2)CCCCC1)c1cc2ccccc2o1 | inactive: 26%
71 | O=C(NCC1(N2CCCCC2)CCCCC1)c1ccc(Cl)nc1 | inactive: 5.7%
72 | CCOC(=O)N1CCC(Nc2ccc(OC)cc2)CC1 | inactive: -0.285%
73 | O=C(NCC1(N2CCCCC2)CCCCC1)c1ccc(Cl)s1 | inactive: 17.9%
74 | N#CC1(Nc2ccccc2)CCN(Cc2ccccc2)CC1 | inactive: -1.31%
75 | O=C(OC1CN2CCC1CC2)C1c2ccccc2Oc2ccccc21 (stereo not drawn) | inactive: 7.67%
76 | COc1ccc(Cl)cc1C(=O)NCC1(N2CCOCC2)CCCCC1 | inactive: 9.04%
77 | O=C1C(O)=C([N+](=O)[O-])C(=O)C(O)=C1[N+](=O)[O-] | inactive: -3.31%
78 | O=C(NCC1(N2CCCCC2)CCCCC1)c1ccc(=O)[nH]c1 | inactive: 16%
79 | O=C(NCC1(N2CCCCC2)CCCCC1)c1cccs1 | inactive: -4.36%
80 | COc1ccc(C(=O)NCC2(N3CCCCC3)CCCCC2)cc1 | inactive: -5.16%
81 | CC(C)(C)OC(=O)N1CCC(N(C(=O)c2ccccc2)c2ccc(F)cc2)CC1 | inactive: -11.3%
82 | CSc1ccccc1C(=O)NCC1(N2CCCCC2)CCCCC1 | inactive: 3.32%
83 | Cc1cccc(NC2(C#N)CCN(Cc3ccccc3)CC2)c1 | inactive: -0.897%

From PubChem BioAssay AID504444 (National Center for Advancing Translational Sciences (NCATS), 2011)
